The values below come from patent publication US20210353579A1, “HIGH PENETRATION COMPOSITIONS AND USES THEREOF” (Techfields Pharma Co., Ltd., priority 2006, published 2021).

The series is described as follows: in vivo. Conditions: rat.

Molecules are shown by their SMILES.
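Also: acute toxicity in rats expressed as LD50, determined for both prodrugs and their parent compounds.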

In turn, `C=CCOc1ccc(CC(=O)O)cc1Cl` [Alclofenac, alclofenac, reference compound] returned a 50% lethal dose (LD50) of 1050 mg/kg.
